Source: patent US12521375B2, “Pharmaceutical composition for treating fatty liver disease” (Shionogi & Co., Ltd., priority 2020, dated 2026)

Sequences of proteins named here, by UniProt entry; tags and fusion partners are left off. Residues count along the entry.
UniProt O00763, 27-2458: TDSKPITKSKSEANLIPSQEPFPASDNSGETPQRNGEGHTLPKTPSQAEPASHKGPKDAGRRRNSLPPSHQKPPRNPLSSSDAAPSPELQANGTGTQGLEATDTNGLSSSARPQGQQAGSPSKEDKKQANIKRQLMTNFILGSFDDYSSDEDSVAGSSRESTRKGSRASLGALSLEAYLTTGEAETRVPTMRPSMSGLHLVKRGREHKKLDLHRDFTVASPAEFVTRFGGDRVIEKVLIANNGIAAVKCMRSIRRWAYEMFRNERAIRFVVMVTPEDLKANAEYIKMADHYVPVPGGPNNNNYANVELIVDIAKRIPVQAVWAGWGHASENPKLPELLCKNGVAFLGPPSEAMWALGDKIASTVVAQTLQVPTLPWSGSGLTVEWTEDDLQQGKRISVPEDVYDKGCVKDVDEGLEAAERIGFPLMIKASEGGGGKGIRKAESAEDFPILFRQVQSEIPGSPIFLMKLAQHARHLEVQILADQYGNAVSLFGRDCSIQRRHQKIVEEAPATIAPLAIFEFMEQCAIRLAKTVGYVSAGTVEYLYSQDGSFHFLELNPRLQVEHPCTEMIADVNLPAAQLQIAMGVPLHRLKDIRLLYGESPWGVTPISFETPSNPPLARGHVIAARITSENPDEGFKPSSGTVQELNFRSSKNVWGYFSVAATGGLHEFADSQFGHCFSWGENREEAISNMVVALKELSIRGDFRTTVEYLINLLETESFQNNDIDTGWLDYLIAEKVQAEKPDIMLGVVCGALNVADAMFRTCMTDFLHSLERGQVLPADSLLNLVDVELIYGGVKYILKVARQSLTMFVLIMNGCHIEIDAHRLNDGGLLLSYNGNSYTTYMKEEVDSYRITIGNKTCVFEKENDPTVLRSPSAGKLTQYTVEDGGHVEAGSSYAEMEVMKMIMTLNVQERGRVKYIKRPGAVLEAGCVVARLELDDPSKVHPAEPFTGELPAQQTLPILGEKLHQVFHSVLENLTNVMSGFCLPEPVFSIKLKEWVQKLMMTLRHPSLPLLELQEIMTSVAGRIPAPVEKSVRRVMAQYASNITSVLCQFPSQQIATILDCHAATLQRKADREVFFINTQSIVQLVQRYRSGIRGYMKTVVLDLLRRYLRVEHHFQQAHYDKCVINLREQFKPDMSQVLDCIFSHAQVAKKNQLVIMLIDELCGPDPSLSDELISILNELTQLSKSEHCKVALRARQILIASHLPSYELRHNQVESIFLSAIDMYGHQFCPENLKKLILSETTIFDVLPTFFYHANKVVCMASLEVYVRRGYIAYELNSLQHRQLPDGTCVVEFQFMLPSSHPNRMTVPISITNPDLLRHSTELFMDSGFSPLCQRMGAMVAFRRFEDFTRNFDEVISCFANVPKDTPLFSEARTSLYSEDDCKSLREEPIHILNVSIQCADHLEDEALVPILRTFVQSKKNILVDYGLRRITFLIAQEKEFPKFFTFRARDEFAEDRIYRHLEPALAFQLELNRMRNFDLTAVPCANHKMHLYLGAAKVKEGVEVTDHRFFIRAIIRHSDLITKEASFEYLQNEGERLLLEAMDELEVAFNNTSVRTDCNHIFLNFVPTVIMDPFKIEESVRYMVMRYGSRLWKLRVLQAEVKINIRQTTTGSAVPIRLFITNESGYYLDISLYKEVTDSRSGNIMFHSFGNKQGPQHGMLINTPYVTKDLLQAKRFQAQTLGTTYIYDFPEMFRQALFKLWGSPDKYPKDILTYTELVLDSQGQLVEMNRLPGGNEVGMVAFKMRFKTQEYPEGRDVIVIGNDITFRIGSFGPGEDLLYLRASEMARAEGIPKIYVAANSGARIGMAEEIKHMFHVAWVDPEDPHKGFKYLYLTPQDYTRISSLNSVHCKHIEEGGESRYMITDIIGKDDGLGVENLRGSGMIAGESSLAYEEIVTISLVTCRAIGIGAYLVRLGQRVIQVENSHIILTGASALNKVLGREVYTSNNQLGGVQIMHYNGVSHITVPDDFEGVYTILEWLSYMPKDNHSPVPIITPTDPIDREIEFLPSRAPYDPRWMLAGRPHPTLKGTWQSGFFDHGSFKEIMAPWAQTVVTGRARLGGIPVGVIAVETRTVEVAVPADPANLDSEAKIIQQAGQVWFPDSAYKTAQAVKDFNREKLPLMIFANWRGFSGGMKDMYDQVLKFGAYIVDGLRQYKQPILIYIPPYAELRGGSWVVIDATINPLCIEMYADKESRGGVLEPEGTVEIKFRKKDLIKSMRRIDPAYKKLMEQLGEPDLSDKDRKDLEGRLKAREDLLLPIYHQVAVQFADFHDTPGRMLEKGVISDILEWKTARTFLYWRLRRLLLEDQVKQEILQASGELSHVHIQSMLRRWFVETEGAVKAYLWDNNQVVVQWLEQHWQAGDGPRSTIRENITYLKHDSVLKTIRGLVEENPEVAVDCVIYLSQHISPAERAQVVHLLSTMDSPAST

Target: recombinant human ACC2 (Homo sapiens (Human), UniProt O00763)
Experiment: Measurement of inhibitory activity of human ACC2
Format: biochemical
Conditions: read-out: IC50 hACC2
Description: A cDNA encoding human ACC2 protein (27 amino acid residues to 2458 amino acid residues from the N-terminus) was cloned from a human kidney cDNA library (Clontech Laboratories, Inc.), a His-tag sequence was introduced at the 5′ end, and then inserted into pFastBac1 (Invitrogen). A recombinant baculovirus was produced in accordance with the protocol for a Bac-to-Bac baculovirus expression system (Invitrogen), and Sf-9 cells were infected therewith to express human ACC2 protein. The recovered cells were crushed, filtered through a filter, and then subjected to Ni affinity chromatography and anion exchange chromatography. Fractions containing human ACC2 protein were collected to obtain recombinant human ACC2.
The recombinant human ACC1 and the recombinant human ACC2 obtained from the above Preparation Examples were preincubated in an assay buffer (50 mM HEPES-KOH (pH 7.4), 10 mM magnesium chloride, 6 to 10 mM potassium citrate, 4 mM reduced glutathione, and 1.5 mg/ml bovine serum albumin) for 1 hour. […] Deprotonated ions of the substrate acetyl-CoA (AcCoA) and the reaction product malonyl-CoA (MalCoA) were detected, and the intensity of each signal was used to calculate a conversion rate to malonyl-CoA […], i.e., intensity of [MalCoA-H]-/(intensity of [MalCoA-H]-+intensity of [AcCoA-H]-). […]

IC50 [nM]	SMILES
5.1	CC(=O)N[C@@H](C)CO[C@H]1CC[C@H](Oc2nc3c(F)cc(OC4CCC4)cc3n2C)CC1 [Compound I-1]
6.6	CC(=O)N[C@@H](C)CO[C@H]1CC[C@H](Oc2nc3c(Cl)cc(OC4CC4)cc3n2C)CC1 [Compound I-3]
